Target: T1, Nitric oxide synthase 3 (Bos taurus, UniProt P29473)
T1 sequence (P29473 whole entry): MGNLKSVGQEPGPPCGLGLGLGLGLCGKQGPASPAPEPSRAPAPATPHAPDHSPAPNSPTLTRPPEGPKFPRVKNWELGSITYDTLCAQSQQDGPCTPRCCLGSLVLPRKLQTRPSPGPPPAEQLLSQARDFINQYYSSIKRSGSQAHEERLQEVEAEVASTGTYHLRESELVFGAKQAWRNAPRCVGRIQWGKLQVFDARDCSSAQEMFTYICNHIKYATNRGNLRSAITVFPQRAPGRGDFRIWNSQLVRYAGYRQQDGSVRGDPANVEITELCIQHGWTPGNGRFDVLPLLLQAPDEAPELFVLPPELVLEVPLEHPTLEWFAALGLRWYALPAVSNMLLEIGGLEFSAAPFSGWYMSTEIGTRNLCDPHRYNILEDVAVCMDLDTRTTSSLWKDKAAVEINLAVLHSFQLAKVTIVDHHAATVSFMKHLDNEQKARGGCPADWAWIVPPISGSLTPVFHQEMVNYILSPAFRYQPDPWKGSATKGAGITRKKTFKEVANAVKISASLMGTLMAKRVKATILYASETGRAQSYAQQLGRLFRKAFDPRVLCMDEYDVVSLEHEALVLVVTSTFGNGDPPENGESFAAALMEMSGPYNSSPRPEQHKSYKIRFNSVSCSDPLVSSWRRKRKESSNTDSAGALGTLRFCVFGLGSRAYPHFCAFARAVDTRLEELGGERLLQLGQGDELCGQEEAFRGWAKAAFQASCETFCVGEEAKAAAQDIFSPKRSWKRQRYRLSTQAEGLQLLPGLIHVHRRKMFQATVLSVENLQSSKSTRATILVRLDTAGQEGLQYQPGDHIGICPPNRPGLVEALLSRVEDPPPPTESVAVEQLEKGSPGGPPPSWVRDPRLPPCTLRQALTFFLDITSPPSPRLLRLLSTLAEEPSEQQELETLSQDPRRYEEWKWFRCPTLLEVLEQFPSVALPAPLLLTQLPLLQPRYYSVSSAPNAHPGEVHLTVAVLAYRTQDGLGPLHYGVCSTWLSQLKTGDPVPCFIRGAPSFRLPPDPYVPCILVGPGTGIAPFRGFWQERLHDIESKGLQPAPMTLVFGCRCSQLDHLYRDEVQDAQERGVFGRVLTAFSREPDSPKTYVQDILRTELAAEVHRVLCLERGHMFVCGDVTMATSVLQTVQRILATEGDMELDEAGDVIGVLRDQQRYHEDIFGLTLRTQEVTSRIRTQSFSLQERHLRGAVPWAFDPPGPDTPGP
Assay: Inhibition of bovine recombinant endothelial NOS by hemoglobin capture assay

Question: For `N=C(NCCC[C@H](N)C(=O)O)N[N+](=O)[O-]` [NITROARGININE], which Ki is on record?
Answer: The Ki was 720 nM.
